# PubChem BioAssay AID887 (National Center for Advancing Translational Sciences (NCATS), 2007)
# Chains of the proteins cited; added tags and fusions are not shown.
# UniProt P16050, whole entry: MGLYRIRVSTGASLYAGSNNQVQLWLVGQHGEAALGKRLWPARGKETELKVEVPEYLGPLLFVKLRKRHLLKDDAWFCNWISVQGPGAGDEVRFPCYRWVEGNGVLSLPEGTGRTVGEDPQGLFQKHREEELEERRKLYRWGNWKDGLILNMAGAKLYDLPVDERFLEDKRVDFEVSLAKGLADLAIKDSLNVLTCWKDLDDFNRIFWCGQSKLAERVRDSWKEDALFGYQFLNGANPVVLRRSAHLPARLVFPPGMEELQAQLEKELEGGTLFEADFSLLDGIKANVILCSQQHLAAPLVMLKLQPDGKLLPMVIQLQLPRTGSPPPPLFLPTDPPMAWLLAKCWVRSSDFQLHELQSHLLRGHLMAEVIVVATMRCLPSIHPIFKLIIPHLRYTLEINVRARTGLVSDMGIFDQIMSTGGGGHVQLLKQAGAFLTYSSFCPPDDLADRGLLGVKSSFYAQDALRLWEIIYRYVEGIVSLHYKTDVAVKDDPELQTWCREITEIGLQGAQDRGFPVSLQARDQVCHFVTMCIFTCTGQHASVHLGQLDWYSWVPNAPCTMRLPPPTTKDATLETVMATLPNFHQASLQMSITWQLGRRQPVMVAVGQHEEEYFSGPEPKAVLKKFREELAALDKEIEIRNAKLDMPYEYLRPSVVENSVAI
# Only a part is listed here, and it is no random draw. Inconclusive results are not listed. Activity calls are given as the source filed them. Calls follow the shape of the dose curve; as a rule, active = well fitted inhibition curve with a large enough effect; inconclusive = small, poorly fitted or top-dose-only effect; inactive = no such curve, though single readings can be large or run the other way.
# Molecular target: Polyunsaturated fatty acid lipoxygenase ALOX15 (Homo sapiens) (UniProt P16050)
# Assay: qHTS Assay for Inhibitors of 15-hLO (15-human lipoxygenase); also: nearly all actives have a fitted effect of over 55% in size
# Conditions: purified 15hLO-1, xylenol orange hydroperoxide absorbance; at 57.1 µM (top of the series)
# % is scaled to controls: 0 for no effect and ±100 for the full control effect.
row,Structure (SMILES),"activity change, negative = inhibition"
1,CN(CCCl)CCCl,inactive: -29.2%
2,O=[N+]([O-])C(Cl)(Cl)Cl,inactive: 1.59%
